# Laboratory results taken from patent publication EP4563146A1 (IRBM S.P.A., priority 2023, dated 2025).
# pIC50: −log10 of the molar value. Like-named read-outs stand apart in the source and are kept apart here.
# Columns and labels:
# [1] = target: DEN2V NS2B-G4SG4-NS3 serine protease (Dengue virus type 2, UniProt Q91H74); test: DEN2V protease inhibition assay
# [2] = target: DEN1V NS2B-G4SG4NS3 serine protease (Dengue virus type 1, UniProt P17763); test: DEN1V protease inhibition assay
# [3] = target: DEN3V NS2B-G4SG4NS3 serine protease (Dengue virus type 3, UniProt Q6YMS4); test: DEN3V protease inhibition assay
# [4] = target: DEN4V NS2B-G4SG4NS3 serine protease (Dengue virus type 4, UniProt P09866); test: DEN4V protease inhibition assay
# [5] = read-out: Dengue 2 - NS3 protease
# [6] = read-out: Dengue 1 - NS3 protease
# [7] = read-out: Dengue 3 - NS3 protease
# [8] = read-out: Dengue 4 - NS3 protease
Compound,"pIC50 [1, 5]","pIC50 [2, 6]","pIC50 [3, 7]","pIC50 [4, 8]",pIC50 [1],pIC50 [2],pIC50 [3],pIC50 [4]
COc1ncc(-c2ccc(C[n+]3cc([N-]C(=O)Nc4cc(NC(=O)C5CCCC5)cc(C(F)(F)F)c4)on3)cc2)c(C)n1 [Example 18],> 7.00,< 4.70,6.00 to 7.00,6.00 to 7.00,,,,
"NC1CC(C[n+]2cc([N-]C(=O)Nc3cc(NC(=O)Cc4ccccc4)cc(C(F)(F)F)c3)on2)C1 (stereo not drawn) [Example 118, (3-((3-Aminocyclobutyl)methyl)-1,2,3-oxadiazol-3-ium-5-yl)((3-(2-phenylacetamido)-5-(trifluoromethyl)phenyl)carbamoyl)amide]",,,,,> 7.00,4.70 to 6.00,6.00 to 7.00,4.70 to 6.00
"N[C@H]1CC[C@H](C[n+]2cc([N-]C(=O)Nc3cc(N4CC[C@H](c5ccccc5)C4=O)cc(C(F)(F)F)c3)on2)CC1 [Example 143, (3-(((1R,4R)-4-Aminocyclohexyl)methyl)-1,2,3-oxadiazol-3-ium-5-yl)((3-((R)-2-oxo-3-phenylpyrrolidin-1-yl)-5-(trifluoromethyl)-phenyl)carbamoyl)amide]",,,,,> 7.00,4.70 to 6.00,6.00 to 7.00,4.70 to 6.00
"O=C(Cc1ccccc1)Nc1cc(NC(=O)[N-]c2c[n+](Cc3ccc(C(=O)O)cc3)no2)cc(C(F)(F)F)c1 [Example 101, (3-(4-Carboxybenzyl)-1,2,3-oxadiazol-3-ium-5-yl)((3-(2-phenylacetamido)-5-(trifluoromethyl)phenyl)carbamoyl)amide]",,,,,> 7.00,4.70 to 6.00,4.70 to 6.00,4.70 to 6.00
"CN(C)C[C@H]1CC[C@@H]([n+]2cc([N-]C(=O)Nc3cc(NC(=O)Cc4ccccc4)cc(C(F)(F)F)c3)on2)CC1 [Example 61, (3-((1S,4S)- -4-((Dimethylamino)methyl)cyclohexyl)-1,2,3-oxadiazol-3-ium-5-yl)((3-(2-phenylacetamido)-5-(trifluoromethyl)phenyl)carbamoyl)amide]",,,,,> 7.00,< 4.70,6.00 to 7.00,4.70 to 6.00
O=C([N-]c1c[n+](Cc2ccccn2)no1)Nc1cc(NC(=O)C(F)(F)CN2CCCC2)cc(C(F)(F)F)c1 [Example 76],> 7.00,< 4.70,4.70 to 6.00,< 4.70,,,,
"COc1ncc(-c2ccc(C[n+]3cc([N-]C(=O)Nc4cc(N)cc(C(F)(F)F)c4)on3)cc2)c(C)n1 [Example 3, ((3-Amino-5-(trifluoromethyl)phenyl)carbamoyl)(3-(4-(2-methoxy-4-methylpyrimidin-5-yl)benzyl)-1,2,3-oxadiazol-3-ium-5-yl)amide]",,,,,4.70 to 6.00,< 4.70,4.70 to 6.00,4.70 to 6.00
"O=C(Cc1ccccc1)Nc1cc(NC(=O)[N-]c2c[n+](CC3CNCCCO3)no2)cc(C(F)(F)F)c1 (stereo not drawn) [Example 115, (3-((1,4-oxazepan-2-yl)methyl)-1,2,3-oxadiazol-3-ium-5-yl)((3-(2-phenylacetamido)-5-(trifluoromethyl)phenyl)carbamoyl)amide]",,,,,> 7.00,4.70 to 6.00,6.00 to 7.00,4.70 to 6.00
"COC(=O)c1ccc(C[n+]2cc([N-]C(=O)Nc3cc(NC(=O)Cc4ccccc4)cc(C(F)(F)F)c3)on2)nc1 [Example 113, (3-((5-(Methoxycarbonyl)pyridin-2-yl)methyl)-1,2,3-oxadiazol-3-ium-5-yl)((3-(2-phenylacetamido)-5-(trifluoromethyl)phenyl)carbamoyl)amide]",,,,,> 7.00,< 4.70,6.00 to 7.00,4.70 to 6.00
"O=C(Cc1ccccc1)Nc1cc(NC(=O)[N-]c2c[n+](Cc3ccccn3)no2)cc(C(F)(F)F)c1 [Example 7, ((3-(2-Phenylacetamido)-5-(trifluoromethyl)phenyl)carbamoyl)(3-(pyridin-2-ylmethyl)-1,2,3-oxadiazol-3-ium-5-yl)amide]",,,,,> 7.00,4.70 to 6.00,6.00 to 7.00,6.00 to 7.00
"O=C(Cc1ccccc1)Nc1cc(Cl)cc(NC(=O)[N-]c2c[n+](Cc3ccccn3)no2)c1 [Example 58, ((3-Chloro-5-(2-phenylacetamido)phenyl)carbamoyl)(3-(pyridin-2-ylmethyl)-1,2,3-oxadiazol-3-ium-5-yl)amide]",,,,,6.00 to 7.00,< 4.70,4.70 to 6.00,< 4.70
O=C([N-]c1c[n+](Cc2ccccn2)no1)Nc1cc(NC(=O)c2ccnn2-c2ccccc2)cc(C(F)(F)F)c1 [Example 34],> 7.00,4.70 to 6.00,6.00 to 7.00,4.70 to 6.00,,,,
"C[C@@H]1C[C@H]1c1cc(NC(=O)Cc2ccccc2)cc(NC(=O)[N-]c2c[n+](Cc3ccccn3)no2)c1 [Example 130, ((3-((1R,2R)-2-Methylcyclopropyl)-5-(2-phenylacetamido)phenyl)-carbamoyl)(3-(pyridin-2-ylmethyl)-1,2,3-oxadiazol-3-ium-5-yl)amide]",,,,,> 7.00,4.70 to 6.00,6.00 to 7.00,4.70 to 6.00
"O=C(Cc1ccccc1)Nc1cc(NC(=O)[N-]c2c[n+](Cc3ccccc3)no2)cc(C(F)(F)F)c1 [Example 28, (3-Benzyl-1,2,3-oxadiazol-3-ium-5-yl)((3-(2-phenylacetamido)-5-(trifluoro-methyl)phenyl)carbamoyl)amide]",,,,,> 7.00,< 4.70,6.00 to 7.00,4.70 to 6.00
"Cc1noc(C)c1-c1ccc([C@H](CN)[n+]2cc([N-]C(=O)Nc3cc(NC(=O)Cc4ccccc4)cc(C(F)(F)F)c3)on2)cc1 [Example 23, (R)-(3-(2-Amino-1-(4-(3,5-dimethylisoxazol-4-yl)phenyl)ethyl)-1,2,3-oxadiazol-3-ium-5-yl)((3-(2-phenylacetamido)-5-(trifluoromethyl)phenyl)-carbamoyl)amide]",,,,,> 7.00,4.70 to 6.00,> 7.00,6.00 to 7.00
"NCc1ccccc1C[n+]1cc([N-]C(=O)Nc2cc(NC(=O)Cc3ccccc3)cc(C(F)(F)F)c2)on1 [Example 114, (3-(2-(Aminomethyl)benzyl)-1,2,3-oxadiazol-3-ium-5-yl)((3-(2-phenylacetamido)-5-(trifluoromethyl)phenyl)carbamoyl)amide]",,,,,> 7.00,4.70 to 6.00,6.00 to 7.00,4.70 to 6.00
"O=C([N-]c1c[n+](Cc2ccccn2)no1)Nc1cc(N2CC(c3ccccc3)CC2=O)cc(C(F)(F)F)c1 (stereo not drawn) [Example 122, ((3-(2-Oxo-4-phenylpyrrolidin-1-yl)-5-(trifluoromethyl)phenyl)carbamoyl)(3-(pyridin-2-ylmethyl)-1,2,3-oxadiazol-3-ium-5-yl)amide]",,,,,6.00 to 7.00,,4.70 to 6.00,
"COc1ncc(-c2ccc(C[n+]3cc([N-]C(=O)Nc4cc(NS(=O)(=O)Cc5ccccc5)cc(C(F)(F)F)c4)on3)cc2)c(C)n1 [Example 10, (3-(4-(2-Methoxy-4-methylpyrimidin-5-yl)benzyl)-1,2,3-oxadiazol-3-ium-5-yl)((3-((phenylmethyl)sulfonamido)-5-(trifluoromethyl)phenyl)carbamoyl)amide]",,,,,> 7.00,,6.00 to 7.00,6.00 to 7.00
"O=C(Cc1ccccc1)Nc1cc(NC(=O)[N-]c2c[n+](CC3CCCNC3)no2)cc(C(F)(F)F)c1 (stereo not drawn) [Example 110, ((3-(2-Phenylacetamido)-5-(trifluoromethyl)phenyl)carbamoyl)(3-(piperidin-3-ylmethyl)-1,2,3-oxadiazol-3-ium-5-yl)amide]",,,,,> 7.00,4.70 to 6.00,,
"NCc1ccccc1-c1ccc(C[n+]2cc([N-]C(=O)Nc3cc(NC(=O)Cc4ccccc4)cc(C(F)(F)F)c3)on2)nc1 [Example 5, (3-((5-(2-(Aminomethyl)phenyl)pyridin-2-yl)methyl)-1,2,3-oxadiazol-3-ium-5-yl)((3-(2-phenylacetamido)-5-(trifluoromethyl)phenyl)carbamoyl)amide]",,,,,> 7.00,4.70 to 6.00,,
CC(C(=O)Nc1cc(NC(=O)[N-]c2c[n+](Cc3ccccn3)no2)cc(C(F)(F)F)c1)c1ccccc1 (stereo not drawn) [Example 32],> 7.00,4.70 to 6.00,,,,,,
"N[C@H]1CC[C@H](C[n+]2cc([N-]C(=O)Nc3cc(N4CCC(c5ccccc5)C4=O)cc(C(F)(F)F)c3)on2)CC1 (stereo partly drawn) [Example 132, (3-(((1R,4R)-4-Aminocyclohexyl)methyl)-1,2,3-oxadiazol-3-ium-5-yl)((3-(2-oxo-3-phenylpyrrolidin-1-yl)-5-(trifluoromethyl)-phenyl)carbamoyl)amide]",,,,,> 7.00,,,
"Cn1cncc1-c1ccc(C[n+]2cc([N-]C(=O)Nc3cc(NC(=O)Cc4ccccc4)cc(C(F)(F)F)c3)on2)nc1 [Example 6, (3-((5-(1-Methyl-1H-imidazol-5-yl)pyridin-2-yl)methyl)-1,2,3-oxadiazol-3-ium-5-yl)((3-(2-phenylacetamido)-5-(trifluoromethyl)phenyl)carbamoyl)amide]",,,,,> 7.00,,,
Cc1ccc(CN2CCC(C(=O)Nc3cc(NC(=O)[N-]c4c[n+](Cc5ccccn5)no4)cc(C(F)(F)F)c3)CC2)o1 [Example 70],4.70 to 6.00,,,,,,,
O=C(Cc1ccccc1)Nc1cc(NC(=O)[N-]c2c[n+](CC3CCNCC3)no2)cc(C(F)(F)F)c1 [Example 120],> 7.00,,,,,,,
"N[C@H]1CC[C@@H](C[n+]2cc([N-]C(=O)Nc3cc(N4CCC(c5ccccc5)C4=O)cc(C(F)(F)F)c3)on2)CC1 (stereo partly drawn) [Example 131, (3-(((1S,4S)-4-Aminocyclohexyl)methyl)-1,2,3-oxadiazol-3-ium-5-yl)((3-(2-oxo-3-phenylpyrrolidin-1-yl)-5-(trifluoromethyl)-phenyl)carbamoyl)amide]",,,,,> 7.00,,,
"COC(=O)c1ccc(C[n+]2cc([N-]C(=O)Nc3cc(NC(=O)Cc4ccccc4)cc(C4CC4)c3)on2)nc1 [Example 128, ((3-Cyclopropyl-5-(2-phenylacetamido)phenyl)-carbamoyl)(3-((5-(methoxycarbonyl)pyridin-2-yl)methyl)-1,2,3-oxadiazol-3-ium-5-yl)amide]",,,,,> 7.00,,,
